Values of other authors, collected in US9566341B1, “Compounds including Cox inhibitor moiety and enhanced delivery of active drugs using same” (University of Kentucky Research Foundation, priority 2011, dated 2017).

Details: different animal models; cited from earlier work

Oc1ccc2c3c1O[C@H]1[C@H](O)CC[C@@]4(O)[C@@H](C2)N(CC2CC2)CC[C@]314 [NTXOL, 6-β-Naltrexol, reference compound]
duration of action relative to NTX: 4-9 times
